Source: patent US12251434B2 (priority 2021, dated 2025)

System: hyaluronic acid
Assay: Inhibitory ability of hyaluronic acid inhibitor 4-MU on hyaluronic acid with overexpressed viral target, ELISA
Assay type: cell-based
Conditions: 4-MU 100 μM, summary of Table 5

4-Methylumbelliferone
hyaluronic acid produced due to overexpression of the target sequence: reduced
